# From article PMC3153478, “Structural Basis for Species Specific Inhibition of 17β-Hydroxysteroid Dehydrogenase Type 1 (17β-HSD1): Computational Study and Biological Validation” (PLoS ONE, 2011)
# Sequences of proteins named here, by UniProt entry; tags and fusion partners are left off. Residues count along the entry.
# UniProt Q9GME2, 1-314: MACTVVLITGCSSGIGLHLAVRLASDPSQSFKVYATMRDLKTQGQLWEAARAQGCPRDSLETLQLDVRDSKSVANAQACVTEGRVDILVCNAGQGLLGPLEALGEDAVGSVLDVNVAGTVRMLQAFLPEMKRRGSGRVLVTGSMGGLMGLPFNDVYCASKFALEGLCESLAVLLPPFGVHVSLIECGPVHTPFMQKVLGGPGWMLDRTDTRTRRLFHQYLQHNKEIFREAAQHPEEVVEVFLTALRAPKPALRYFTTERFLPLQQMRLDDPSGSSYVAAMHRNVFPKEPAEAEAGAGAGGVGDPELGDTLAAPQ
# UniProt U3BEV1, 1-387: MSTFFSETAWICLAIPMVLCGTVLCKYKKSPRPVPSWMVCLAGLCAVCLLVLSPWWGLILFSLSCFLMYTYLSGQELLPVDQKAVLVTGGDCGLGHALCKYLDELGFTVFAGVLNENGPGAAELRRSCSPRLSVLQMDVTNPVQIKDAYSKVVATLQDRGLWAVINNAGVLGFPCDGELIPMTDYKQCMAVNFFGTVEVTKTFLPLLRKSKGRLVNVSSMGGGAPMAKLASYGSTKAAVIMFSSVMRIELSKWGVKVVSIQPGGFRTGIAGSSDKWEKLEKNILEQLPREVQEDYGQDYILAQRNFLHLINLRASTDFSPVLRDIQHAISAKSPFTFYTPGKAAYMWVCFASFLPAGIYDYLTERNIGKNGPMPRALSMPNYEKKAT
# How the values were obtained:
# marmoset 17β-HSD1 = marmoset 17β-HSD1 (Callithrix jacchus, UniProt Q9GME2); experiment: Inhibition of marmoset 17β-HSD1 (placental cytosolic fraction, tritiated E1, HPLC)
# marmoset 17β-HSD2 = marmoset 17β-HSD2 (Callithrix jacchus, UniProt U3BEV1); experiment: Inhibition of marmoset 17β-HSD2 (placental microsomes, tritiated E2, HPLC); assay type: biochemical, marmoset monkey (callithrix jacchus); conditions: read-out: Marmoset IC50 17ß-HSD2; Logit transformed values calculated from % inhibition at 50 nM inhibitor concentration (trend for <30% or >70%); placental microsomal fraction, substrate E2 500 nM, NAD+ 1500 µM
# Description: Marmoset placental tissue was used as enzyme source and the proteins were partially purified following a described procedure. Tritiated E1 was incubated with 17β-HSD1, cofactor and inhibitor. The separation of substrate and product was performed by HPLC. In an assay similar to the 17β-HSD1 test, marmoset placental microsomes containing 17β-HSD2 were incubated with tritiated E2 in the presence of NAD^+ and inhibitor. Labelled product was quantified after HPLC separation.
# [2, 4, 6, 7-^3H]-E1 and [2, 4, 6, 7-^3H]-E2 were bought from Perkin Elmer, Boston. Quickszint Flow 302 scintillator fluid was bought from Zinsser Analytic, Frankfurt. Marmoset 17β-HSD1 and 17β-HSD2 were obtained from marmoset placenta according to previously described procedures. Fresh marmoset placenta was homogenized and cytosolic and microsomal fractions were separated by centrifugation. For the partial purification of 17β-HSD1, the cytosolic fraction was precipitated with ammonium sulfate. 17β-HSD2 was obtained from the microsomal fraction.
# The 17β-HSD2 inhibition assay was performed similarly to the 17β-HSD1 procedure. The microsomal fraction was incubated with NAD^+ [1500 µM], test compound and a mixture of unlabelled- and [2, 4, 6, 7-^3H]-E2 (final concentration: 500 nM, 0.11 µCi) for 20 min at 37°C. Further treatment of the samples and HPLC separation was carried out as mentioned above. The conversion rate was calculated after analysis of the resulting chromatograms according to the following equation: [drawing 2] .
# human 17β-HSD2 = conditions: read-out: Human IC50 17ß-HSD2; Human placental, microsomal fraction, substrate E2, 500 nM, cofactor NAD+, 1500 µM; ref literature (references indicated with the structural formulas in Fig. 3); cited from earlier work
# [1] = read-out: Marmoset IC50 17ß-HSD1, Logit transformed values calculated from % inhibition, inhibitor concentration: 5 nM, substrate E1 500 nM, NADH 500 µM
Compound,IC50 (marmoset 17β-HSD1; [1]) [nM],IC50 (marmoset 17β-HSD2) [nM],IC50 (human 17β-HSD2) [nM],"IC50 (marmoset 17β-HSD1; read-out: Marmoset IC50 17ß-HSD1, Logit transformed values calculated from % inhibition at 50 nM inhibitor concentration (trend for <30% or >70%), substrate E1 500 nM, NADH 500 µM) [nM]"
Oc1ccc(-c2csc(-c3cccc(O)c3)c2)cc1,2,> 50,–,–
Cc1cc(-c2csc(-c3cccc(O)c3)c2)ccc1O,3,> 50,869,–
Oc1ccc(-c2cc(-c3cccc(O)c3)cs2)cc1,4,> 50,1690,–
Oc1cccc(-c2cc(-c3ccc(O)c(F)c3)cs2)c1,–,72,–,< 50

# Read-outs that look alike come from different tables or passages of the source.
